Assay results taken from paper PMC10566475, “A cell-active cyclic peptide targeting the Nrf2/Keap1 protein–protein interaction” (Chemical Science, 2023).
Values joined by “and” are separate entries in the source; they are usually repeats but may differ in a detail not shown here. Identical values can stand only once. Like-named read-outs stand apart in the source and are kept apart here. *1 amine or outer side, *2 acyl side, *3 side chain or, on linkers, in order; H or OH if unused. Where a SMILES comes first, the peptide text is derived from it. Bridges are numbered along the chain shown (N, C = ends). Roman numbers before positions name the chains, in order. [ ]: non-standard residue; d: D form. X3 = CCCCCCCCCCCCCCCCCC(=O)NCCCC[C@H](NC(=O)COCCOCCNC(=O)COCCOCCn1cc(COCCOCCNc2nc(CC[*:1])cc(CC[*:2])n2)nn1)C(=O)NCCOCCOCC(=O)NCCOCCOCC(N)=O; X2 = O=C(CCCCn1cc(COCCOCCNc2nc(CC[*:1])cc(CC[*:2])n2)nn1)[*:3]; X4 = CCOC(=O)CN(C)c1nc(CC[*:1])cc(CC[*:2])n1

By UniProt entry, the sequences of proteins in these tests, tags left out. Residues count along the entry.
UniProt Q14145, 321-609: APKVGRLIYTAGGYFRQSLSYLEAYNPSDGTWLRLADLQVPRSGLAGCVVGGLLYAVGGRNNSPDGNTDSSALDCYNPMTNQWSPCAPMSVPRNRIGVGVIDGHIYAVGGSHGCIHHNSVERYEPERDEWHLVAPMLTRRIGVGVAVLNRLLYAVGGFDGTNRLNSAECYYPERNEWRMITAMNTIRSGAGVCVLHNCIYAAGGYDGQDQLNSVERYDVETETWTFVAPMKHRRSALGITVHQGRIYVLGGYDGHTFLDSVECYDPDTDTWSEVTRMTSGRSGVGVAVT
UniProt Q14145, whole entry: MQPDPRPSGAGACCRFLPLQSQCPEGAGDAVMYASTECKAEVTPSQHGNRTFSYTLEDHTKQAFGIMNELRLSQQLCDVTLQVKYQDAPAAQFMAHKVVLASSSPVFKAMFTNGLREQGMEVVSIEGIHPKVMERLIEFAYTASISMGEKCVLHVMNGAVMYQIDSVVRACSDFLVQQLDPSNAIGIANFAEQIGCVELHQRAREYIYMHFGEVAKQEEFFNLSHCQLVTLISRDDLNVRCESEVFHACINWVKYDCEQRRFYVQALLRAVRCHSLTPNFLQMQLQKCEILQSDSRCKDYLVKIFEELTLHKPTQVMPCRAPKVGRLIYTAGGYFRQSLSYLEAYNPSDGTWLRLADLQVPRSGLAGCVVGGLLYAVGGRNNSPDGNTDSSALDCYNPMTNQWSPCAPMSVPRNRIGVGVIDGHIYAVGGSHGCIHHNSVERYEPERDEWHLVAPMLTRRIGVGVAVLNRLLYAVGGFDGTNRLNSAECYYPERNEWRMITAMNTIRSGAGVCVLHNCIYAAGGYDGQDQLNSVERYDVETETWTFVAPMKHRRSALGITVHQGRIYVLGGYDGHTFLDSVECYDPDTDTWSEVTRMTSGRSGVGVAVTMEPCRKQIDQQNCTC

What was measured:
[1] = target: T1, interaction between the human Keap1 Kelch domain and an Nrf2-ETGE peptide (Homo sapiens, UniProt Q14145); experiment: Keap1-Nrf2 TR-FRET (HTRF) assay; type: binding
T1 construct: 1nM purified human Keap1 Kelch domain (A321-T609) fused with N-terminal 6x His-tag; made in house
Excerpt: (§1) We based the design of our Nrf2-like cyclic peptides around the amino acid sequence of the ETGE motif (namely 12-mer ^73QLQLDEETGEF^84L) and SAR studies reported in the literature.[9,10,12,14] The […] motif is known to adopt a beta-turn conformation upon binding to Keap1. Residues Q73-Q75 and L85 stabilise the bound conformation, L76-D77 and E79-G81 bind deep into the pocket with E79 and E82 forming electrostatic interactions with Keap1 and D77 and T80 stabilising the beta-turn via H-bonds with E78 not contributing to the binding. In particular, our peptides aim to retain the beta-turn conformation and featured the E78P mutation which has been reported to improve the binding affinity.[9] […] The ability of the cyclic peptides to bind to the Kelch domain of Keap1 was evaluated using surface plasma resonance (SPR), where the Kelch domain is immobilised onto a SPR sensor chip. Additionally, we assessed the ability of the peptides to inhibit the PPI between Nrf2 and the Kelch domain of Keap1 using a time-resolved FRET (TR-FRET) assay. Here, the IC50 for inhibition of the interaction between the human Keap1 Kelch domain and an Nrf2-ETGE peptide is measured.
(§2) Surface Plasmon Resonance (SPR)
(§3) Peptide affinities to the Kelch domain of Keap1 is determined in a direct binding assay using 8K surface plasmon resonance (SPR) biosensor (Cytiva) at 20°C. Immobilization of Keap1 Kelch domain on a CM5 sensor chip (Cytiva) is performed using standard amine coupling procedure. The surface is washed with 10mM NaOH, 1M NaCl before activated with EDC/NHS (Cytiva), followed by immobilization of human Keap1 Kelch domain (A321-T609) fused with N-terminal 6x His-tag7 (in 10 mM MES, pH=6.4).
(§4) Finally, the surface is deactivated by Ethanolamine. Immobilization levels are typically 5000-6000 RU.
(§5) The reference spot is treated as described, omitting the injection of Keap1. Compound concentration series are injected over the immobilized protein in increasing concentrations using single cycle kinetics (SCK) in running buffer (10 mM HEPES, 150 mM NaCl, 0.05% Tween20, 1 mM TCEP, pH 7.4). A 1:1 Langmuir interaction model is fitted to the experimental traces, enabling determination of kon, koff and […]
(§6) In the time-resolved Förster resonance energy transfer (TR-FRET) assay8 the IC50 of inhibitors which are able to inhibit the interaction between the Keap1-Kelch domain and a Nrf2 derived ETGE peptide are determined. The TR-FRET is measured between a Tb-labelled mAb (Anti—6-His, Tb cryptate Gold, CisBio 61H12TLB) that binds to Keap 1 Kelch domain and d2-labelled SA-biotin-peptide.
(§7) The assay was performed in 384-well white low-volume, medium binding plates (Greiner Bio One, Austria) in 20 mM HEPES pH 7.5, 150 mM NaCl, 2 mM GSH (Sigma-Aldrich, USA),1mM EDTA (Sigma-Aldrich, USA), and 0.01% Pluronic F127 (MilliporeSigma, USA), with a final reaction volume of 10 µL.
(§8) To determine the ability of synthesized peptide to inhibit PPI between the Keap1 Kelch domain and Nrf2, 1nM purified human Keap1 Kelch domain (A321-T609) fused with N-terminal 6x His-tag, 5 nM biotinylated Nrf2 peptide ([…], Genescript, USA), d2-labeled streptavidin (Revvity, USA), and […] anti-His monoclonal antibody tagged with terbium cryptate (Revvity, USA), were incubated in the presence of varying concentrations of investigated peptides for 3 h at room […]
(§9) 7 Li X, Zhang D, Hannink M, Beamer LJ. Crystallization and initial crystallographic analysis of the Kelch domain from human Keap1. Acta
(§10) 8 S. Lee, D. Ali Abed, L. J. Beamer, L. Hu, Development of a Homogeneous Time-Resolved Fluorescence Resonance Energy Transfer (TR-
FRET) Assay for the Inhibition of Keap1–Nrf2 Protein–Protein Interaction, SLAS Discovery, 26, 1, 2021, Pages 100-112, ISSN 2472- […]
Following the incubation, the PHERAstar FSX […] microplate reader was used to measure the acceptor and donor emissions at 665 nm and 620 nm, respectively. The acceptor/donor ratio was used to calculate relative energy transfer. […]

[2] = target: T2, human Keap1 Kelch domain (A321-T609) (Homo sapiens, UniProt Q14145); experiment: Surface plasmon resonance (SPR) direct binding assay, immobilised Keap1 Kelch domain
T2 construct: human Keap1 Kelch domain (A321-T609) fused with N-terminal 6x His-tag; 6xHis (N); made in house
Excerpt: as §1, §2, §3, §4, §5, §6, §7, §8, §9, §10
FRET) Assay for the Inhibition of Keap1–Nrf2 Protein–Protein Interaction, SLAS Discovery, 26, 1, 2021, Pages 100-112, ISSN 2472-

[3] = target: NQO1 gene expression in BEAS-2B cells (Homo sapiens); experiment: BEAS-2B NQO1 assay (qPCR of NQO1 mRNA); type: cell-based; settings: EC50 of NQO1 mRNA upregulation, 24 h, medium without FBS, read-out: BEAS2b
Excerpt: The effect of peptides on Nrf2-dependent gene expression was investigated in BEAS-2B cells, where we determined the upregulation of the mRNA of NAD(P)H quinone dehydrogenase (NQO1) by qPCR. The expression of NQO1 is Nrf2-dependent and it is one of the two major quinone reductases, which play a crucial role in protecting cells from oxidative stress.[40] ^§§ In the context of this study we chose BEAS-2B cells as a representative model for epithelial cells. The presence of serum has been reported to affect BEAS-2B cell phenotype. Specifically, exposure of BEAS-2B to FBS has been associated with squamous differentiation, alteration in cytokine secretion and response to toxicants.[42–44] […] The lack of activity of the peptides is unsurprising considering the overall negative net charge, which will obstruct their cellular uptake. In order to improve the cellular uptake, we took of advantage of the 2C-PS moiety, which not only allows the easy synthesis of a variety of macrocycles of different ring sizes, but also permits the facile introduction of a diverse set of moieties, which could enhance cell permeability. We pursued a diverse set of strategies to make the Keap1 peptide more cell permeable, namely: masking of the acidic amino acids with methyl esters, introduction of polyarginine peptides, GWWG-polyarginine peptides or a long-chain fatty acid tag onto the staple, as well as peptide shortening and a combination of these. The rationale behind these strategies is explained herein, and details of their synthesis can be found in the ESI. ^†
Cellular Biology Experimental
(Thermo Fisher Scientific, USA).
calculated using QunatStudio 7 software.

[4] = Table 1, single cycle kinetics, 1:1 Langmuir model

Structure (SMILES) | IC50 ([1]; Table 1, geometric mean ± sd of at least 3 independent repeats unless stated, read-out: TR-FRET IC50) | Kd ([2]; Table 1, geometric mean ± sd of at least 3 independent repeats unless stated, 20°C) [nM] | koff [2, 4] [s⁻¹] | kon [2, 4] [M⁻¹ s⁻¹] | koff ([2]; Table 2) [s⁻¹] | kon ([2]; Table 2) [M⁻¹ s⁻¹] | IC50 ([1]; Table 2, IC50, minimum of three repeats, read-out: TR-FRET) [nM] | Kd ([2]; Table 2, geometric mean ± sd of at least two independent repeats) | EC50 [3] [nM]
CCOC(=O)CN(C)c1nc2cc(n1)CCSC[C@@H](C(=O)N[C@@H](CC(C)C)C(N)=O)NC(=O)[C@H](CCC(=O)O)NC(=O)CNC(=O)[C@H]([C@@H](C)O)NC(=O)[C@H](CCC(=O)O)NC(=O)[C@@H]1CCCN1C(=O)[C@H](CC(=O)O)NC(=O)[C@H](CC(C)C)NC(=O)[C@H](CCC(N)=O)NC(=O)[C@H](CC(C)C)NC(=O)[C@@H](NC(C)=O)CSCC2 [Peptide P3-F] (Ac-CLQLDPETGECL-NH2; linker 1-11 via X4) | 2 nM and 1.9 nM | 14 ± 1.4 | 0.0032 | 240000 |  |  |  |  | 
CC(=O)N[C@H]1CSCCc2cc(nc(NCCOCCOCc3cn(CCCCC(=O)NCC(=O)N[C@@H](Cc4c[nH]c5ccccc45)C(=O)N[C@@H](Cc4c[nH]c5ccccc45)C(=O)NCC(=O)N[C@H](CCCNC(=N)N)C(=O)N[C@H](CCCNC(=N)N)C(=O)N[C@H](CCCNC(=N)N)C(N)=O)nn3)n2)CCSC[C@@H](C(=O)N[C@@H](CC(C)C)C(N)=O)NC(=O)[C@H](CCC(=O)O)NC(=O)CNC(=O)[C@H]([C@@H](C)O)NC(=O)[C@H](CCC(=O)O)NC(=O)[C@@H]2CCCN2C(=O)[C@H](CC(=O)O)NC(=O)[C@H](CC(C)C)NC(=O)[C@H](CCC(N)=O)NC(=O)[C@H](CC(C)C)NC1=O [Peptide P3-G] (I: Ac-CLQLDPETGECL-NH2 / II: GWWG[dR][dR][dR]-NH2; linker I:1-I:11-II:N via X2) |  |  |  |  | 0.00072 | 340000 |  |  | 
CCCCCCCCCCCCCCCCCC(=O)NCCCC[C@H](NC(=O)COCCOCCNC(=O)COCCOCCn1cc(COCCOCCNc2nc3cc(n2)CCSC[C@@H](C(=O)N[C@@H](CC(C)C)C(N)=O)NC(=O)[C@H](CCC(=O)O)NC(=O)CNC(=O)[C@H]([C@@H](C)O)NC(=O)[C@H](CCC(=O)O)NC(=O)[C@@H]2CCCN2C(=O)[C@H](CC(=O)O)NC(=O)[C@H](CC(C)C)NC(=O)[C@H](CCC(N)=O)NC(=O)[C@H](CC(C)C)NC(=O)[C@@H](NC(C)=O)CSCC3)nn1)C(=O)NCCOCCOCC(=O)NCCOCCOCC(N)=O [Peptide P3-H] (Ac-CLQLDPETGECL-NH2; linker 1-11 via X3) |  |  |  |  | 0.00073 | 160000 | 2 ± 1.6 | 4 nM and 4.5 nM | > 10000
CCOC(=O)CN(C)c1nc2cc(n1)CCSC[C@@H](C(=O)N[C@@H](CC(C)C)C(N)=O)NC(=O)[C@H](CCC(=O)OC)NC(=O)CNC(=O)[C@H]([C@@H](C)O)NC(=O)[C@H](CCC(=O)O)NC(=O)[C@@H]1CCCN1C(=O)[C@H](CC(=O)OC)NC(=O)[C@H](CC(C)C)NC(=O)[C@H](CCC(N)=O)NC(=O)[C@H](CC(C)C)NC(=O)[C@@H](NC(C)=O)CSCC2 [Peptide P4-F] (Ac-CLQLD(OMe)PETGE(OMe)CL-NH2; linker 1-11 via X4; N-terminus assumed) |  |  |  |  | 0.049 | 58000 |  |  | 
